Experimental data taken from patent US11559579B2, “Methods for protecting and treating traumatic brain injury, concussion and brain inflammation with intranasal insulin” (HealthPartners Research & Education, priority 2014, dated 2023).

Assays:
[1] = tail vein blood prior to injury, 4 hours after injury/before treatment and 3 hours after treatment; n=3 per group; insulin to upper third of nasal cavity; FIG. 5
[2] = weighed on days 1, 7, 14 and 21 post-injury; intranasal, once a day

For insulin, the “blood glucose, insulin rats vs saline rats” value [1] was “no significant difference in blood glucose” and the “weight, insulin rats vs saline rats” value [2] was “no significant difference in weight”.
